# PMC12460146, “Impact of metabolic enzyme activity variability on dabrafenib disposition” (Frontiers in Pharmacology, 2025)
# System: rat liver microsomes (RLM)
# Assay: Drug interaction screening of 48 drugs on dabrafenib metabolism in RLM
# Conditions: inhibitor 100 µM, dabrafenib at RLM Km concentration, hydroxy-dabrafenib formation
smiles,measurement,value
CCOc1cc(CC(=O)N[C@@H](CC(C)C)c2ccccc2N2CCCCC2)ccc1C(=O)O [Repaglinide],Relative activity (% of control),100.54% ± 0.05
